Test results published in patent US5663186A, “Treatment of atherosclerosis with angiotensin II receptor blocking imidazoles” (Merck & Co., Inc., priority 1995, dated 1997).

Target: Angiotensin II Receptor
Assay: Angiotensin II receptor binding, rat adrenal cortical microsomes (3H-AII displacement)
Details: 2 nM 3H-AII, 1 hour room temperature

CCCCc1nc(Cl)c(C(=O)O)n1Cc1ccc(-c2ccccc2-c2nnn[nH]2)cc1 [Compound 2, 2-n-butyl-4-chloro-1-[(2'-(tetrazol-5-yl)-1,1'-biphenyl-4-yl)-methyl]-1H-imidazole-5-carboxylic acid]
IC50: 0.011 µM
